1 compound from article PMC5515971, “Utility of spherical human liver microtissues for prediction of clinical drug-induced liver injury” (Archives of Toxicology, 2017) can be followed below.

In this test the test system is 3D human liver microtissues (hLiMT). The experiment in a line: Cytotoxicity (cellular ATP, CellTiter-Glo 2.0) in 3D human liver microtissues, 14 day repeat-dose treatment. Particulars: Hepatocyte, 336 h, read-out: Geomean IC50 [µM]. For orientation: Cellular ATP, detected with luciferase, serves as a proxy for viable cell number.

In general, IC50 refers to the concentration at which inhibition is half-maximal. As for `CN(CCOc1ccc(CC2SC(=O)NC2=O)cc1)c1ccccn1` (stereo not shown) [Rosiglitazone], the IC50 worked out at 37.7 µM.
